Earlier results, collected in patent publication US20150216993A1 (priority 2012, published 2015).

Test system: organophosphate poisoning
Settings: due to rapid clearance from the body

C[n+]1ccccc1/C=N/O
window of time in which the therapeutic is effective: about 10 minutes
